Measurements from ChEMBL document CHEMBL4184320, “Optimization of Selective Mitogen-Activated Protein Kinase Interacting Kinases 1 and 2 Inhibitors for the Treatment of Blast Crisis Leukemia” (J Med Chem, 2018).

By UniProt entry, the sequences of proteins in these tests, tags left out. Where a name states a change or a piece, a line headed by the entry shows the natural chain unless it says otherwise.
UniProt Q9HBH9: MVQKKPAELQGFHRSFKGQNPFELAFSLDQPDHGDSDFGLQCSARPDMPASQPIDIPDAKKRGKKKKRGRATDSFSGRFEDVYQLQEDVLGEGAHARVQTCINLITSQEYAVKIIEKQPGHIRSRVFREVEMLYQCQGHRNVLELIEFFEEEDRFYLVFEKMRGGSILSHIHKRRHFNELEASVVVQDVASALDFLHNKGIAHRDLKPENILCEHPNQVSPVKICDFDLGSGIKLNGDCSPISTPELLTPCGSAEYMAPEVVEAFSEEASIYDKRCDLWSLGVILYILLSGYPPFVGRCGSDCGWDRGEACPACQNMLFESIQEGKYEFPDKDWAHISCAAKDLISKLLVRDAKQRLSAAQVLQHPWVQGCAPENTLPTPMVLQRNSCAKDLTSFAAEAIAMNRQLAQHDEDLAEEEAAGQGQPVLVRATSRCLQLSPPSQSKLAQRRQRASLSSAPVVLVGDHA
UniProt Q9BUB5: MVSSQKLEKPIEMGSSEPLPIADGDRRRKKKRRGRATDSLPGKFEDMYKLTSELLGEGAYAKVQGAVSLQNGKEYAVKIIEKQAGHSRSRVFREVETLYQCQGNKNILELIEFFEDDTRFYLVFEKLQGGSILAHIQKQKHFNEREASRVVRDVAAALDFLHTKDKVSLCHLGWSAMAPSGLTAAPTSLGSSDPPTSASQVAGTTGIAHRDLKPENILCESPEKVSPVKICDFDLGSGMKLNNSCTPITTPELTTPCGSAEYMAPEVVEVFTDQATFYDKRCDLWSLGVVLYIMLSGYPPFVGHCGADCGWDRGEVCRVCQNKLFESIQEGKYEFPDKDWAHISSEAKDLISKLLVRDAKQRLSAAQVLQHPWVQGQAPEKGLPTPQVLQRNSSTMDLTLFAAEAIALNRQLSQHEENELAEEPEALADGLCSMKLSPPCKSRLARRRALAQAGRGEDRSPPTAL

How the values were obtained:
[1] = target: MAP kinase-interacting serine/threonine-protein kinase 2 (Homo sapiens, UniProt Q9HBH9)
[2] = target: MAP kinase-interacting serine/threonine-protein kinase 1 (Homo sapiens, UniProt Q9BUB5)

IC50 [1]: 502 nM | IC50 [2]: 499 nM
Structure (SMILES): CN1CCN(C(=O)c2ccc(-c3cn4c(-c5ccc(C#N)cc5)cnc4cn3)cc2)CC1
